From patent US10807988B2, “3-((hetero-)aryl)-8-amino-2-oxo-1,3-diaza-spiro-[4.5]-decane derivatives” (dated 2020)

Sequences of proteins named here, by UniProt entry; tags and fusion partners are left off. A change or cut given only in a name is not applied to a line headed by its entry.
UniProt P41146: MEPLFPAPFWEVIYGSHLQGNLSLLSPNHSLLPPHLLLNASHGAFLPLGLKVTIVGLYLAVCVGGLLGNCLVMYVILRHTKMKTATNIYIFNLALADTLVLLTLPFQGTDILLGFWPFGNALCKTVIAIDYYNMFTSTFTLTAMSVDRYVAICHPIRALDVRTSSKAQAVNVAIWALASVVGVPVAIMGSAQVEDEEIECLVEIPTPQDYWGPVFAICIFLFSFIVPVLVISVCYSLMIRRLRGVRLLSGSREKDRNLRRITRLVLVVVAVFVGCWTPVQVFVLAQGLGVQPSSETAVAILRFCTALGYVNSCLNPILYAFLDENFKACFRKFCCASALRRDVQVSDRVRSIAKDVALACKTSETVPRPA
UniProt P35372, whole entry, looked up: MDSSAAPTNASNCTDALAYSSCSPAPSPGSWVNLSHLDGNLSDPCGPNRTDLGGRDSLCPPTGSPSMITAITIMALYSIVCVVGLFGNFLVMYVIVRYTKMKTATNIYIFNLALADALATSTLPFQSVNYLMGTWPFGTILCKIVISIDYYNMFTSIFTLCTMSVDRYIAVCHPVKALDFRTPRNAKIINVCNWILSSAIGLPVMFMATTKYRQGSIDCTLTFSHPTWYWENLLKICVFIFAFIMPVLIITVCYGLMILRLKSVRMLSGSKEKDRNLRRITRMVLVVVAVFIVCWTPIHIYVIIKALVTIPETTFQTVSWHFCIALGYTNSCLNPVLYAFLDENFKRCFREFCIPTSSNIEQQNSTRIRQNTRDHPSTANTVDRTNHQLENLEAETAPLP

molecular target: human nociceptin/orphanin FQ peptide (hNOP) receptor (Homo sapiens (Human), UniProt P41146); experiment: not given; settings: read-out: hNOP Ki

In order of falling Ki:
1. CN(C)[C@]1(c2ccccc2)CC[C@]2(CC1)CN(c1cnc(C#N)nc1)C(=O)N2CCO  237 nM
2. CN(C)[C@]1(c2ccccc2)CC[C@]2(CC1)CN(c1cnc(N3CCN(S(C)(=O)=O)CC3)nc1)C(=O)N2  13 nM
3. CN(C)[C@]1(c2ccccc2)CC[C@]2(CC1)CN(c1cnc(-c3cccc(C#N)c3)nc1)C(=O)N2  6 nM
4. CN(C)[C@]1(c2ccccc2)CC[C@]2(CC1)CN(c1ccc(S(C)(=O)=O)cc1)C(=O)N2CC1CC1  2 nM

molecular target: human mu-opioid peptide (hMOP) receptor (Homo sapiens (Human), UniProt P35372); experiment: Human mu-opioid peptide (hMOP) receptor binding assay (SPA, [3H]naloxone displacement); settings: at 1 μM

In order of rising “hMOP % inhibition at 1 μM” value:
1. CN(CC1CC1)[C@]1(c2ccccc2)CC[C@]2(CC1)CN(c1cnc(C(F)(F)F)nc1)C(=O)N2  6%
2. Cn1nc(C(F)(F)F)cc1N1C[C@]2(CC[C@](c3cccc(F)c3)(N(C)C)CC2)NC1=O  15%
3. CN(C)[C@]1(c2ccccc2)CC[C@]2(CC1)CN(c1cnc(NC(=O)C3CC3)nc1)C(=O)N2  17%
4. CN(C)[C@]1(c2ccccc2)CC[C@]2(CC1)CN(c1cnc(-c3ccc(C(N)=O)cc3)nc1)C(=O)N2  23%
5. CN(C)[C@]1(c2ccccc2)CC[C@]2(CC1)CN(c1cnc(-c3ccccc3C#N)nc1)C(=O)N2  25%

same assay, conditions: read-out: hMOP Ki

`CN(C)[C@]1(c2ccccc2)CC[C@]2(CC1)CN(c1ccc(S(C)(=O)=O)cc1)C(=O)N2CC1CC1` showed a Ki of 97 nM.
